Sequences of proteins named here, by UniProt entry; tags and fusion partners are left off. Residues count along the entry.
UniProt P00915, 2-261 limits assumed: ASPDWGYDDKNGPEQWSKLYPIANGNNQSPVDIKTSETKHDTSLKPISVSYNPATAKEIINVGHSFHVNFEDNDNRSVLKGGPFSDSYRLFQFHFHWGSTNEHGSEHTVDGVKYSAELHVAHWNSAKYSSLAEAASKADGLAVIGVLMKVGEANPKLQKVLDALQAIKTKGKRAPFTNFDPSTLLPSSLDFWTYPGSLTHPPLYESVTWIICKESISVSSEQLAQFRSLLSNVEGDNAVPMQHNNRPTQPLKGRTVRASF

In ChEMBL document CHEMBL1142045, “Carbonic anhydrase inhibitors. Interaction of isozymes I, II, IV, V, and IX with organic phosphates and phosphonates” (Bioorg Med Chem Lett, 2005):

Molecular target: Carbonic anhydrase 1 (Homo sapiens) (UniProt P00915)
Experiment: Activation constant towards human cytosolic carbonic anhydrase I; Activator

`CP(=O)(O)O` was tested, and the KA was 1.2 µM.
